# Data as given in patent publication US6624187B1, “Long wave length absorbing bacteriochlorin alkyl ether analogs” (Health Research, Inc., priority 2000, dated 2003).
# Assay: Stability in vivo (and in vitro) of bacteriopurpurin ring systems
# From the text: For the preparation of bacteriopurpurin 1 (FIG. 2), the n-propyl alcohol extract of Rb Sphaeroides, which contains bacteriochlorophyll-a (λmax 774 nm), was directly reacted with KOH/n-propanol in presence of air. It was immediately treated with HCl or H2SO4 (pH 2 to 3) to produce bacteriopurpurin-18 propyl ester and the related carboxylic acid 2 which in reacting with H2SO4/n-propanol can be converted into the related propyl ester analog 1.
# Compared to the anhydride ring system, compounds with fused imide ring system in other compounds have shown stability in vivo. For example, among non-porphyrin systems, amonafide, an imide derivative and its structural analogs are reported as anti-neoplastic agents in vitro as well as in vivo with good stability. While we could not know how this might apply to non-porphyrin systems, we investigated the effect of such cyclic structures in the bacteriochlorin system. Initially we followed our own methodology developed for the preparation of purpurin-18-N-alkylimides (U.S. Pat. No. 5,952,366 incorporated herein by reference). Unfortunately, that approach produced a complex reaction mixture. Thus, in a modified approach, bacteriopurpurin-a 2 was first reacted with an alkyl amine (e.g. n-hexyl amine). The formation of the intermediate amide was monitored by spectrophotometry and analytical thin layer chromatography. […]
substance,measurement,value
3-Acetyl-bacteriopurpurin-18-N-hexylimide [Compound 4],stability in vitro and in vivo,stable in vitro and in vivo
